By UniProt entry, the sequences of proteins in these tests, tags left out. Residues count along the entry.
UniProt O95497, 22-491 limits assumed: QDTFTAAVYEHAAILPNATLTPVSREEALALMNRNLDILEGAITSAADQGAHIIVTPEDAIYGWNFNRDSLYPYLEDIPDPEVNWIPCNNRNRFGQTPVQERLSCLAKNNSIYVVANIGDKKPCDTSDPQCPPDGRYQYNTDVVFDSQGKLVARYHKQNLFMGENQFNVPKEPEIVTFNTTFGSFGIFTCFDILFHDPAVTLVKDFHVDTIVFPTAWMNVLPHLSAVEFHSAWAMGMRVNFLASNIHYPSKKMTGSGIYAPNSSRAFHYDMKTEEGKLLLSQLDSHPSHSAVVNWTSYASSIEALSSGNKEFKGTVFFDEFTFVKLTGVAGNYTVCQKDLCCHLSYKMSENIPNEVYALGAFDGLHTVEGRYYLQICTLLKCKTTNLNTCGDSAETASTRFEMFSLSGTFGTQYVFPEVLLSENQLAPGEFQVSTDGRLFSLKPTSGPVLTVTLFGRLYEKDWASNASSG

In US10906888B2, “Pyrimidine carboxamides as inhibitors of Vanin-1 enzyme” (Pfizer Inc., priority 2016, dated 2021):

Biological target: human vanin-1 (Homo sapiens (Human), UniProt O95497)
Test: Human Vanin-1 Enzyme Assay 1
Assay type: biochemical
Conditions: read-out: Human Vanin-1 IC50; 25 pM human vanin-1, 50 uM pantetheine 7-amino-4-trifluoromethylcoumarin substrate

SMILES: C[C@H](Nc1ncc(C(=O)N2C[C@@H]3C[C@H]2CN3C)cn1)c1cnccn1
- IC50: 604 nM
